The series can be described thus: Solubility of ionic liquid in 100 g of ink or treating solution. The series is classed as physicochemical. The following applies: about 23° C., left 1 day. The protocol: Solubility (the amount of the ionic liquid that can be solved in 100 g of the ink) is defined by mixing the ink and the ionic liquid in predetermined amounts and leaving the resultant mixture for 1 day while keeping it at a temperature of about 23° C. The amount of ionic liquid that has separated from the ink 1 day after mixing is determined as the amount of ionic liquid exceeding the solubility of the ionic liquid in the ink.

For the substance “1-ethyl-3-methylimidazolium bis(trifluoromethanesulfonyl)imide [Example 1-1]”, the “Solubility (g) of ionic liquid in 100 g of ink” value (ink A) is recorded as “less than 5 g”. In addition, the “Solubility (g) ionic liquid in 100 g of treating solution” value (treating solution A) is given as “less than 5 g”.

For the origin of these results see patent US20060192819A1, “Recording apparatus” (Fuji Xerox Co., Ltd., priority 2005, published 2006).
